From patent US20200249194A9, “PROSTATE PROTEASE NANOSENSORS AND USES THEREOF” (Massachusetts Institute of Technology, priority 2017, published 2020)

System: serine hydrolase
Assay: Activity-based probe (FP-TAMRA) labeling of fresh-frozen tissue
Parameters: species or system human

## fluorophosphonate-TAMRA
fresh-frozen human prostate cancer TMA
  probe labeling, prostate cancer vs normal control samples: labeled prostate cancer samples more than normal control samples
Sections of 22Rv1 xenograft tumor
  probe labeling of tissue sections: tumor cells were labeled
